Results as given in US20250109201A1 (AGENUS, published 2025).

Chains of the proteins cited; added tags and fusions are not shown. Where a name states a change or a piece, a line headed by the entry shows the natural chain unless it says otherwise. Chains listed by the source or under a name are the forms on record and can include a tag or linker. Residues count along the entry.
UniProt O75019, 17-461 limits assumed: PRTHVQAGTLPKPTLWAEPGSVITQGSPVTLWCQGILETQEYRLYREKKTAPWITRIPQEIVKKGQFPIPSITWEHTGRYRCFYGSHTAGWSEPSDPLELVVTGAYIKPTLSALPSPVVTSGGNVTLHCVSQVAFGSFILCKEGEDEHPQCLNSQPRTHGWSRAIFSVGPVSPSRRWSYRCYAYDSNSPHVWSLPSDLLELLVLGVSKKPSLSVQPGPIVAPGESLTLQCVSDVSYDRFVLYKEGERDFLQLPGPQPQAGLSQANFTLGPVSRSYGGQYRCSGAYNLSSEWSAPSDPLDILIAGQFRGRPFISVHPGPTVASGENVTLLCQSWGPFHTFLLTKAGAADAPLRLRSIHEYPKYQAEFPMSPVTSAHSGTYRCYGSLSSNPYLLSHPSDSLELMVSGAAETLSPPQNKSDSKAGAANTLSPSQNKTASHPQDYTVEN
UniProt Q8N149, 24-449 limits assumed: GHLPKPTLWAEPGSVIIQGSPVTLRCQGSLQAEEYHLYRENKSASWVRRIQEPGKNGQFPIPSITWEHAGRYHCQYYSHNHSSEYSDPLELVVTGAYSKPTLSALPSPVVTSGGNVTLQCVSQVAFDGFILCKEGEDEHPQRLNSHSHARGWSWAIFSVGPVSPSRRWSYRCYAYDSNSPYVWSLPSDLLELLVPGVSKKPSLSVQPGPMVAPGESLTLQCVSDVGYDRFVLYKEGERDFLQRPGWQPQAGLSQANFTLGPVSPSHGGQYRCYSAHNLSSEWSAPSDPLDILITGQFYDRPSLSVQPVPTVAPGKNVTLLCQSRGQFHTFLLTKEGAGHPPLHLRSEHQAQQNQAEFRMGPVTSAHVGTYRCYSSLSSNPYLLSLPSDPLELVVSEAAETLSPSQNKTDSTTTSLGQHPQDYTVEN
UniProt P59901, 24-446 limits assumed: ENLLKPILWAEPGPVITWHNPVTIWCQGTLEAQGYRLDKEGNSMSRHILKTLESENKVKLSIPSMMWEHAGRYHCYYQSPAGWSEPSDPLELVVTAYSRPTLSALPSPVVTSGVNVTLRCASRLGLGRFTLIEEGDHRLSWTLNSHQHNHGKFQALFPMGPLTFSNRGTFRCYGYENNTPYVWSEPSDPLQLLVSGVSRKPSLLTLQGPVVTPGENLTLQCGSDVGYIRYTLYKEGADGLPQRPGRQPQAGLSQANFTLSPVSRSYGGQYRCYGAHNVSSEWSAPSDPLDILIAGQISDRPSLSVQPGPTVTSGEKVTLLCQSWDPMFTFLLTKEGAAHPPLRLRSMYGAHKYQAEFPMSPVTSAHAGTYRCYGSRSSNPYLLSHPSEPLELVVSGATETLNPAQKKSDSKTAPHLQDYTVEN
UniProt A6NI73, 42-268 limits assumed: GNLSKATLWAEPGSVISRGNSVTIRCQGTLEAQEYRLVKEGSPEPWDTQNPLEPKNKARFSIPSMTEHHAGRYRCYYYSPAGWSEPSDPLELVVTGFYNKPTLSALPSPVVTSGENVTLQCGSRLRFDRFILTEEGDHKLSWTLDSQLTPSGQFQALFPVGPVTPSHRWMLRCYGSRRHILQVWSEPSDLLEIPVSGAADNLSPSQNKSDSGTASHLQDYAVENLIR
UniProt Q6PI73, 24-447 limits assumed: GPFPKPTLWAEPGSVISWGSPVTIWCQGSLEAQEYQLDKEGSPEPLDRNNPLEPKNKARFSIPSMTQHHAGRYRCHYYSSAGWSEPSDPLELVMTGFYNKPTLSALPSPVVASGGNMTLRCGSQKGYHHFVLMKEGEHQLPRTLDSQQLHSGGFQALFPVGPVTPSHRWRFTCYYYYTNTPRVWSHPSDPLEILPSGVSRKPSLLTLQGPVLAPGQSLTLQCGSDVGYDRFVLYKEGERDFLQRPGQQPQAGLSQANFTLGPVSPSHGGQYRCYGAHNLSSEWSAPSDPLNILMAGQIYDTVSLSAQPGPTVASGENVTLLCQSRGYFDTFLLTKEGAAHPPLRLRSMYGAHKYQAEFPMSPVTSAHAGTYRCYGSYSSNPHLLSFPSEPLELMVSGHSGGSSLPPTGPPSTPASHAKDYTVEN
UniProt Q8N423, 22-458 limits assumed: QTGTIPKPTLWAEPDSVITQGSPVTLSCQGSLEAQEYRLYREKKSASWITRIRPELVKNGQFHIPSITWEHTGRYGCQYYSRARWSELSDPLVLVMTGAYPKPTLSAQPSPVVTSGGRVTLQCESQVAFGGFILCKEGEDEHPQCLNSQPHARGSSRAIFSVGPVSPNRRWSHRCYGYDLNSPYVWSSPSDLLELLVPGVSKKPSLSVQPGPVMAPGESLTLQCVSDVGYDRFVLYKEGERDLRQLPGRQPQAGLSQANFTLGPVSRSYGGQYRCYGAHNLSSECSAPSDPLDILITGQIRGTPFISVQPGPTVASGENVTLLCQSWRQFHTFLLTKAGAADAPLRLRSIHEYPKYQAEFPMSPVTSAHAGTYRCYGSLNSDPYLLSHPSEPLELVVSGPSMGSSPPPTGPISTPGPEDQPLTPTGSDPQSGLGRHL
UniProt O75023, 24-458 limits assumed: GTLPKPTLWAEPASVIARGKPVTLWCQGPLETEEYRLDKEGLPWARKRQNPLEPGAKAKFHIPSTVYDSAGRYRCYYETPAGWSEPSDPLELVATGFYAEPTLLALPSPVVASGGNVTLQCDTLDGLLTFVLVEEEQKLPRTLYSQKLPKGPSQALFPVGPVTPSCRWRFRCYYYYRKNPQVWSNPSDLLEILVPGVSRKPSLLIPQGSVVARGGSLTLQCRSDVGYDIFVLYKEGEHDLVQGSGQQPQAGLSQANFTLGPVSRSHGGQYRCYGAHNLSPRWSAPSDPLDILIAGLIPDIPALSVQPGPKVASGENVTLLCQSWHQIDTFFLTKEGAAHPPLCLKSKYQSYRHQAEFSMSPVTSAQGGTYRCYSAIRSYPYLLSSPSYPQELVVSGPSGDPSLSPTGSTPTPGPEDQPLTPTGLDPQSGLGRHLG
ECD-His tagged human ILT2 haplotype PE02, UniProt Q8NHL6, other isoform, or with tags, fused parts or gaps: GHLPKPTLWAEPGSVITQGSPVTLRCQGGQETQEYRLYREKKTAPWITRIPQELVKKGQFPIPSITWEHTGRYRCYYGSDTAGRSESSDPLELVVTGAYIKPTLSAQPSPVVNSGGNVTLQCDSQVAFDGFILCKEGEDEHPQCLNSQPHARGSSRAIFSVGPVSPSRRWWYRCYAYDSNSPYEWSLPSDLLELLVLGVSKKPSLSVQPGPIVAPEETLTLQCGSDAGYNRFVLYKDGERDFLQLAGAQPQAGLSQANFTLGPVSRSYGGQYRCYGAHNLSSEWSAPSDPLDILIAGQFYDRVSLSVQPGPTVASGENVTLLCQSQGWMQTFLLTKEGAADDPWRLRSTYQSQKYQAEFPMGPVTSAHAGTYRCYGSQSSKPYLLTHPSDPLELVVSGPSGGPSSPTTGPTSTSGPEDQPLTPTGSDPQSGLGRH
ECD-His tagged human ILT2 haplotype PE03, UniProt Q8NHL6, other isoform, or with tags, fused parts or gaps: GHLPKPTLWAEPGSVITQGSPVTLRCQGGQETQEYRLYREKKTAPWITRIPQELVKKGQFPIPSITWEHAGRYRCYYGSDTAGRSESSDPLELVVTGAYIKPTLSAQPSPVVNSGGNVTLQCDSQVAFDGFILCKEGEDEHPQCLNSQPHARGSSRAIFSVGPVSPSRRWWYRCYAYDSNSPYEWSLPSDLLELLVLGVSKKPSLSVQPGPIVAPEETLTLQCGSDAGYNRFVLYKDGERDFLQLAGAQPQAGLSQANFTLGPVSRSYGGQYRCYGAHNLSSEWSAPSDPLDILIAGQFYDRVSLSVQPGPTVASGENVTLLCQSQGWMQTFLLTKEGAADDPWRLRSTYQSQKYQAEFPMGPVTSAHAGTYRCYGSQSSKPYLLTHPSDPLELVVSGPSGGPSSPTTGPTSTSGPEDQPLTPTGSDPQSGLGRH
UniProt Q8NHL6, 24-458: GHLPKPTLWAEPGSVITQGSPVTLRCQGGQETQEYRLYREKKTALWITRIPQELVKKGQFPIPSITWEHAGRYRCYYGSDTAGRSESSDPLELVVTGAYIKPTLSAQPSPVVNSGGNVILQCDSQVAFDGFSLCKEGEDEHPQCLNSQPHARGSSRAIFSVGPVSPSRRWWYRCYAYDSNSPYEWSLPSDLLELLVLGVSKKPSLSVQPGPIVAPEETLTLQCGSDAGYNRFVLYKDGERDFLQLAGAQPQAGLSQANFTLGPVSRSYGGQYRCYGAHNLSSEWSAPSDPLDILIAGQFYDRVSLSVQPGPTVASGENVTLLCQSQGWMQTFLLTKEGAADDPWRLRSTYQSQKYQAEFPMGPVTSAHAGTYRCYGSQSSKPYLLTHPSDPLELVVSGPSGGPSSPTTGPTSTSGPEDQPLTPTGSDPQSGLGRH
UniProt Q8NHL6, 24-650: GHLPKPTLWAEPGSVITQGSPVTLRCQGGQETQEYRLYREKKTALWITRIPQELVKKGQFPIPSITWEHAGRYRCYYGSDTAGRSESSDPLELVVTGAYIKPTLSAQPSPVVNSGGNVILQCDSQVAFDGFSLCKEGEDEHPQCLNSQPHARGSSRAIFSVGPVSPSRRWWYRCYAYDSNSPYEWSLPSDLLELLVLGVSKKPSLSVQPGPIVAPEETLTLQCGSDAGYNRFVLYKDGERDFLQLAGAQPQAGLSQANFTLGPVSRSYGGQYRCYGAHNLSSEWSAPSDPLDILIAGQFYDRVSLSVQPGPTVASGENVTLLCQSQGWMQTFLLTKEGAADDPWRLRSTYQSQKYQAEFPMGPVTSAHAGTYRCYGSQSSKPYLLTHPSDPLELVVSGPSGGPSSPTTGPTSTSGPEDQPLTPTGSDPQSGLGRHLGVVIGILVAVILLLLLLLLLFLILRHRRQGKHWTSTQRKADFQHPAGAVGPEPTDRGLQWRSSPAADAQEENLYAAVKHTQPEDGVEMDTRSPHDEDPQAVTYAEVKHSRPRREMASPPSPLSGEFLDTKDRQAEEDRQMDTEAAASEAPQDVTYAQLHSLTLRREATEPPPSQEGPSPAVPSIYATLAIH
UniProt Q8NHL6, 24-482 limits assumed: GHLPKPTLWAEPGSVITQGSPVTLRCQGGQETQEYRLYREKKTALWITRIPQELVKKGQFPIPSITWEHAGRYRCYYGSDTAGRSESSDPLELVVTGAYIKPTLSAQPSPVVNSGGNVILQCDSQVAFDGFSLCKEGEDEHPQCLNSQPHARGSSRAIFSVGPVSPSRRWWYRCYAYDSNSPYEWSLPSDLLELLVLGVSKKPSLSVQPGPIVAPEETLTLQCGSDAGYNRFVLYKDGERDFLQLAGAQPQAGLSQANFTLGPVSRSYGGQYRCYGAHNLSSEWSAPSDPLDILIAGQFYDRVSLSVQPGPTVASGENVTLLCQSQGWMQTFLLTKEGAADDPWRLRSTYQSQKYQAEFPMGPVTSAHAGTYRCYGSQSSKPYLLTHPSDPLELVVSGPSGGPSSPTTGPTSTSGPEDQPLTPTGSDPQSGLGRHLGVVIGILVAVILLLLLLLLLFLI
ECD-His tagged African green monkey (AGM) ILT2 orthologue protein, one chain, as listed by the source: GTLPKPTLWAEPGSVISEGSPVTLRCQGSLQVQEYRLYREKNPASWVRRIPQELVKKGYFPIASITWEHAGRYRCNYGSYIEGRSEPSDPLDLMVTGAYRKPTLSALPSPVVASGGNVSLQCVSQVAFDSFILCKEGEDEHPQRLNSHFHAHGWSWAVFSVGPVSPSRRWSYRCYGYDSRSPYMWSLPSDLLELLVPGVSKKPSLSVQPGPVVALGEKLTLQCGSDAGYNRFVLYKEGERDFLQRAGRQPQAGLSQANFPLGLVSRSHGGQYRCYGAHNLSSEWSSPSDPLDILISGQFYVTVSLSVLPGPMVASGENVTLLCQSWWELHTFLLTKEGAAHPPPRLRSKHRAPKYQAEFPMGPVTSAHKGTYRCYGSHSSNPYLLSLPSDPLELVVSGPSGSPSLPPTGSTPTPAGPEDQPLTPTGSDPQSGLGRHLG

Experiments:
[1] = molecular target: T1, recombinant human LILRA1/LIR-6 (Sino Biological 17220-H08H-100) (human, UniProt O75019); experiment: SPR
T1 construct: Bought
Experimental: (§1) Briefly, SPR experiments were performed using a Biacore T200 instrument, and the association rate (Kₐ), dissociation rate (Kd), and dissociation constant (KD) were calculated from each experiment using a 1:1 binding model with Biacore™ T200 Evaluation Software. Capture of antibodies from the Human Fab Capture kit (28958325, GE Healthcare) to the Series S CM5 sensor chip (29149603, GE Healthcare) was performed using the immobilization wizard for amine coupling from the Biacore™ control panel and following the manufacturer's recommendations included with the kit.

[2] = molecular target: T2, recombinant human LILRA2/ILT1 (R&D Systems 9040-T4-050) (human, UniProt Q8N149); experiment: SPR
T2 construct: Bought
Experimental: as §1

[3] = molecular target: T3, recombinant human LILRA4/ILT7 (Sino Biological 16058-H08H-50) (human, UniProt P59901, in part); experiment: SPR
T3 construct: Bought
Experimental: as §1

[4] = molecular target: T4, recombinant human LILRA5/ILT11 (Sino Biological 16059-H08H-100) (human, UniProt A6NI73, in part); experiment: SPR
T4 construct: Bought
Experimental: as §1

[5] = molecular target: T5, recombinant human LILRA6/ILT8 (Sino Biological 29813-H08H-50) (human, UniProt Q6PI73); experiment: SPR
T5 construct: Bought
Experimental: as §1

[6] = molecular target: T6, recombinant human LILRB2/ILT4 (R&D Systems 8429-T4-050) (human, UniProt Q8N423, in part); experiment: SPR
T6 construct: Bought
Experimental: as §1

[7] = molecular target: T7, recombinant human LILRB3/ILT5 (R&D Systems 9159-T5-050) (human, UniProt O75022, in part); experiment: SPR
T7 construct: Bought
Experimental: as §1

[8] = molecular target: T8, recombinant human LILRB4/ILT3 (Sino Biological 16742-H08H) (human, UniProt Q8NHJ6, in part); experiment: SPR
T8 construct: Bought
Experimental: as §1

[9] = molecular target: T9, recombinant human LILRB5/LIR-8 (Sino Biological 17221-H08H-100) (human, UniProt O75023, in part); experiment: SPR
T9 construct: Bought
Experimental: as §1

[10] = molecular target: T10, ECD-His tagged cynomolgus monkey ILT2 orthologue protein, variant 1 (cynomolgus monkey); experiment: SPR
T10 construct: also called Cyno ILT2 variant 1; not shown: His tag

[11] = molecular target: T11, ECD-His tagged cynomolgus monkey ILT2 orthologue protein, variant 2 (cynomolgus monkey); experiment: SPR
T11 construct: also called Cyno ILT2 variant 2; not shown: His tag

[12] = molecular target: T12, ECD-His tagged rhesus monkey ILT2 orthologue protein, variant 1 (rhesus monkey); experiment: SPR
T12 construct: also called Rhesus ILT2 variant 1; not shown: His tag

[13] = molecular target: T13, ECD-His tagged rhesus monkey ILT2 orthologue protein, variant 2 (rhesus monkey); experiment: SPR
T13 construct: also called Rhesus ILT2 variant 2; not shown: His tag

[14] = molecular target: T14, ECD-His tagged African green monkey (AGM) ILT2 orthologue protein (African green monkey); experiment: SPR
T14 construct: also called African Green Monkey ILT2 ECD; not shown: His tag

[15] = molecular target: T15, ECD-His tagged mouse PirB protein (R&D Systems, 2754PB050) (mouse, UniProt P97484 25-642); experiment: SPR
T15 construct: extracellular domain; Bought; not shown: His tag
T15 sequence (looked up): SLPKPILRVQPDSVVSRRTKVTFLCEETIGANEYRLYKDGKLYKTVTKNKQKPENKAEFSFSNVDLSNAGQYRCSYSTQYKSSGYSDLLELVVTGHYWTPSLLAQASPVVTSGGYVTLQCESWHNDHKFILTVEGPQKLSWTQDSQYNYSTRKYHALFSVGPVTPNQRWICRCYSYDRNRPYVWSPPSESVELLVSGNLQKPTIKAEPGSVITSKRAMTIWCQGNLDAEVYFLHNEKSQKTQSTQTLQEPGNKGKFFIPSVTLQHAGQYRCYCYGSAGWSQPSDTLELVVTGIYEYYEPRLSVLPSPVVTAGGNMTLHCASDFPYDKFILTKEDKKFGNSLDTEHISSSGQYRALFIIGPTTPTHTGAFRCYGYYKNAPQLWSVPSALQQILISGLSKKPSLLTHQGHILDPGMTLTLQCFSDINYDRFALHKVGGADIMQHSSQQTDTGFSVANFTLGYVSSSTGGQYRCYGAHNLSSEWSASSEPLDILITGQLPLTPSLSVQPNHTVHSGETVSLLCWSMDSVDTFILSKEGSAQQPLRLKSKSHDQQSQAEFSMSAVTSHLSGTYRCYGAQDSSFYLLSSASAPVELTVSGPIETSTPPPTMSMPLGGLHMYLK

[16] = molecular target: T16, ECD-His tagged human ILT2 haplotype PE02 (human, UniProt Q8NHL6, in part); experiment: SPR, ILT2 ECD-His
T16 construct: also called Human ILT2 PE02 ECD; not shown: His tag
Experimental: as §1

[17] = molecular target: T17, ECD-His tagged human ILT2 haplotype PE03 (human, UniProt Q8NHL6, in part); experiment: SPR, ILT2 ECD-His
T17 construct: also called Human ILT2 PE03 ECD (Sino biological, 16014-H08H); not shown: His tag
Experimental: as §1

[18] = molecular target: T18, ECD-His tagged human ILT2 haplotype PE01 (human, UniProt Q8NHL6, in part); experiment: SPR, LILR family panel
T18 construct: also called Human ILT2 PE01 ECD; LILRB1/ILT2 PE01; not shown: His tag
Experimental: as §1

[19] = molecular target: full-length ILT2 expressed on Jurkat cells (human, UniProt Q8NHL6); experiment: cell-based or functional assay
[20] = molecular target: T19, ECD-His tagged cynomolgus monkey ILT2 orthologue protein, variant 3 (cynomolgus monkey); experiment: SPR, ECD-His tagged receptor
T19 construct: also called Cyno ILT2 variant 3; not shown: His tag
Experimental: as §1

[21] = molecular target: T20, human ILT2 extracellular and transmembrane domains expressed on CHO cells (human, UniProt Q8NHL6, in part); experiment: flow cytometry, CHO cells with high human ILT2
T20 construct: domain: extracellular and transmembrane domains; which one is told under assay; also called CHO cells expressing human ILT2 (relatively low or relatively high level); CHO-ILT2 cells
Experimental: For the antibody binding assay, the cells were seeded in a 96-well U-bottom tissue culture plate at a density of 3×10⁵ cells per well in 25 μL of PBS supplemented with 0.5% BSA, 1 mM EDTA and 0.05% sodium azide (FACS Buffer). The cells were incubated for 30 minutes at 4° C. with […] of a series dilution of anti-ILT2 antibodies or isotype control at concentrations from 10 μg/mL to 2.4 ng/mL in FACS Buffer.
After a 30-minute incubation in the dark at 4° C., the cells were washed twice with cold FACS Buffer, and the cells were analyzed by flow cytometry (BD LSR Fortessa Flow Cytometer). CHO-ILT2 cells were identified and MFI was calculated as above.

[22] = molecular target: T18, ECD-His tagged human ILT2 haplotype PE01; experiment: SPR, ILT2 PE01 ECD-His, average of two measurements
Experimental: as §1
Variants of irrelevant antibody VRC01 (with IgG1, IgG1 N297A, IgG4 S228P, IgG2, or IgG2 C127S constant regions) were used as negative isotype controls. The binding kinetics are shown in Table 5 as an average from two independent measurements.

B1: BA221 (antibody, human IgG4 S228P, kappa)
heavy: QVQLVQSGAEVKKPGASVKVSCKASGYTFNRYYMHWVRQAPGQGLEWMGWINPYTGGTNYAQKFQGRVTMTRDTSISTAYMELSRLRSDDTAVYYCASKQPSSDYWGQGTLVTVSSASTKGPSVFPLAPCSRSTSESTAALGCLVKDYFPEPVTVSWNSGALTSGVHTFPAVLQSSGLYSLSSVVTVPSSSLGTKTYTCNVDHKPSNTKVDKRVESKYGPPCPPCPAPEFLGGPSVFLFPPKPKDTLMISRTPEVTCVVVDVSQEDPEVQFNWYVDGVEVHNAKTKPREEQFNSTYRVVSVLTVLHQDWLNGKEYKCKVSNKGLPSSIEKTISKAKGQPREPQVYTLPPSQEEMTKNQVSLTCLVKGFYPSDIAVEWESNGQPENNYKTTPPVLDSDGSFFLYSRLTVDKSRWQEGNVFSCSVMHEALHNHYTQKSLSLSLGK
light: DIVMTQSPLSLPVTPGEPASISCRSSQSLLHSNTYNYLDWYLQKPGQSPQLLIYLGSNRASGVPDRFSGSGSGTDFTLKISRVEAEDVGVYYCLQASQAPWTFGQGTKVEIKRTVAAPSVFIFPPSDEQLKSGTASVVCLLNNFYPREAKVQWKVDNALQSGNSQESVTEQDSKDSTYSLSSTLTLSKADYEKHKVYACEVTHQGLSSPVTKSFNRGEC
- binding result [1]: no binding
- binding result [2]: no binding
- binding result [3]: no binding
- binding result [4]: no binding
- binding result [5]: no binding
- binding result [6]: no binding
- binding result [7]: no binding
- binding result [8]: no binding
- binding result [9]: no binding
- binding result [10]: no binding
- binding result [11]: no binding
- binding result [12]: no binding
- binding result [13]: no binding
- binding result [14]: no binding
- binding result [15]: no binding
- Kd [16]: 0.48 nM
- koff [16]: 0.00023 s⁻¹
- kon [16]: 480000 M⁻¹ s⁻¹
- Kd [17]: 0.66 nM
- koff [17]: 0.00029 s⁻¹
- kon [17]: 440000 M⁻¹ s⁻¹
- Kd [18]: 0.45 nM
- koff [18]: 0.00021 s⁻¹
- kon [18]: 460000 M⁻¹ s⁻¹
- FcγRIIIa-NFAT luciferase signaling, Average AUC normalized to HP-F1 [19]: 143
- FcγRIIIa-NFAT luciferase signaling, EC50 [19]: 32.8 µg/mL
- Kd [20]: 2800 nM
- AUC [21]: 361000
- EC50 [21]: 0.141 µg/mL
- Kd [22]: 0.2 nM
- koff [22]: 7.3e-05 s⁻¹
- kon [22]: 370000 M⁻¹ s⁻¹
